molecular target: Recombinant human cathepsin S (CatS) (Homo sapiens, UniProt P25774); assay: biochemical

Sequences of proteins named here, by UniProt entry; tags and fusion partners are left off. Residues count along the entry.
UniProt P25774, 115-331: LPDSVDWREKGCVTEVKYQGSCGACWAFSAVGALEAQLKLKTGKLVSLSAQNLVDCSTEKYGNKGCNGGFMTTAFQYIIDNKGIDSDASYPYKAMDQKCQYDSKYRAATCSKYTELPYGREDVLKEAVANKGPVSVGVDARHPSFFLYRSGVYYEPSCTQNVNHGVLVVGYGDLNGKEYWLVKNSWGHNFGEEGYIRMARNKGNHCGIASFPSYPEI

Compared with `CC1CCN(C[C@H](O)Cn2nc(-c3ccc(C(F)(F)F)c(SCCN4CCC5CCCCC5C4)c3)c3c2CCN(S(C)(=O)=O)C3)CC1` (stereo partly drawn) [Example 637, (2S)-1-(4-Methylpiperidin-1-yl)-3-{5-(methylsulfonyl)-3-[3-{[2-(octahydroisoquinolin-2(1H)-yl)ethyl]sulfanyl}-4-(trifluoromethyl)phenyl]-4,5,6,7-tetrahydro-1H-pyrazolo[4,3-c]pyridin-1-yl}propan-2-ol], `CC1CCN(CCSc2cc(-c3nn(C[C@@H](O)CN4CCSCC4)c4c3CN(S(C)(=O)=O)CC4)ccc2C(F)(F)F)CC1` [Example 467, (2S)-1-{3-[3-{[2-(4-Methylpiperidin-1-yl)ethyl]sulfanyl}-4-(trifluoromethyl)phenyl]-5-(methylsulfonyl)-4,5,6,7-tetrahydro-1H-pyrazolo[4,3-c]pyridin-1-yl}-3-thiomorpholin-4-ylpropan-2-ol] is 3.1-fold higher in IC50: 95 nM for the first, 290 nM for the second.

Compared with `CS(=O)(=O)N1CCc2c(c(-c3ccc(C(F)(F)F)c(SCCN4CCOCC4)c3)nn2CC(O)CN2CCC(OCC(=O)N3CCCC3)CC2)C1` (stereo not shown) [Example 851, 1-[5-(Methylsulfonyl)-3-{3-[(2-morpholin-4-ylethyl)sulfanyl]-4-(trifluoromethyl)phenyl}-4,5,6,7-tetrahydro-1H-pyrazolo[4,3-c]pyridin-1-yl]-3-{4-[(2-oxo-2-pyrrolidin-1-ylethyl)oxy]piperidin-1-yl}propan-2-ol], `CS(=O)(=O)N1CCc2c(c(-c3ccc(C(F)(F)F)c(SCCN4CCOCC4)c3)nn2CC(O)CN2CCC(C(=O)N3CCCCC3)CC2)C1` (stereo not shown) [Example 806, 1-[5-(Methylsulfonyl)-3-{3-[(2-morpholin-4-ylethyl)sulfanyl]-4-(trifluoromethyl)phenyl}-4,5,6,7-tetrahydro-1H-pyrazolo[4,3-c]pyridin-1-yl]-3-[4-(piperidin-1-ylcarbonyl)piperidin-1-yl]propan-2-ol] is 5.1-fold lower in IC50: 810 nM for the first, 160 nM for the second.

Compared with `OC(CN1CCC(c2ccccn2)CC1)Cn1nc(-c2ccc(C(F)(F)F)c(SCCN3CCC(F)CC3)c2)c2c1CCNC2` (stereo not shown) [Example 232, 1-{3-[3-{[2-(4-Fluoropiperidin-1-yl)ethyl]sulfanyl}-4-(trifluoromethyl)phenyl]-4,5,6,7-tetrahydro-1H-pyrazolo[4,3-c]pyridin-1-yl}-3-(4-pyridin-2-ylpiperidin-1-yl)propan-2-ol], `OC(CN1CCN(c2ccccc2)CC1)Cn1nc(-c2ccc(C(F)(F)F)c(SCCN3CCC(F)CC3)c2)c2c1CCNC2` (stereo not shown) [Example 399, 1-{3-[3-{[2-(4-Fluoropiperidin-1-yl)ethyl]sulfanyl}-4-(trifluoromethyl)phenyl]-4,5,6,7-tetrahydro-1H-pyrazolo[4,3-c]pyridin-1-yl}-3-(4-phenylpiperazin-1-yl)propan-2-ol] is 2.6-fold higher in IC50: 160 nM for the first, 410 nM for the second.

Going from `CS(=O)(=O)N1CCc2c(c(-c3ccc(C(F)(F)F)c(SCCN4CCC(N5CCCC5)CC4)c3)nn2CC(O)CN2CCC(Oc3ncccn3)CC2)C1` (stereo not shown) [Example 884, 1-{5-(Methylsulfonyl)-3-[3-{[2-(4-pyrrolidin-1-ylpiperidin-1-yl)ethyl]sulfanyl}-4-(trifluoromethyl)phenyl]-4,5,6,7-tetrahydro-1H-pyrazolo[4,3-c]pyridin-1-yl}-3-[4-(pyrimidin-2-yloxy)piperidin-1-yl]propan-2-ol] to `CS(=O)(=O)N1CCc2c(c(-c3ccc(C(F)(F)F)c(SCCN4CCC(O)CC4)c3)nn2CC(O)CN2CCC(Oc3ncccn3)CC2)C1` (stereo not shown) [Example 786, 1-[2-({5-[1-{2-Hydroxy-3-[4-(pyrimidin-2-yloxy)piperidin-1-yl]propyl}-5-(methylsulfonyl)-4,5,6,7-tetrahydro-1H-pyrazolo[4,3-c]pyridin-3-yl]-2-(trifluoromethyl)phenyl}sulfanyl)ethyl]piperidin-4-ol], the IC50 falls from 630 nM to 200 nM (3.1-fold).

Compared with `O=C(CSc1cc(-c2nn(CC(O)CN3CCC(C(=O)N4CCCC4)CC3)c3c2CNCC3)ccc1C(F)(F)F)N1CCOCC1` (stereo not shown) [Example 495, 1-(3-{3-[(2-Morpholin-4-yl-2-oxoethyl)sulfanyl]-4-(trifluoromethyl)phenyl}-4,5,6,7-tetrahydro-1H-pyrazolo[4,3-c]pyridin-1-yl)-3-[4-(pyrrolidin-1-ylcarbonyl)piperidin-1-yl]propan-2-ol], `CC1(O)CCN(CC(O)Cn2nc(-c3ccc(C(F)(F)F)c(SCC(=O)N4CCCC4)c3)c3c2CCNC3)CC1` (stereo not shown) [Example 301, 1-[2-Hydroxy-3-(3-{3-[(2-oxo-2-pyrrolidin-1-ylethyl)sulfanyl]-4-(trifluoromethyl)phenyl}-4,5,6,7-tetrahydro-1H-pyrazolo[4,3-c]pyridin-1-yl)propyl]-4-methylpiperidin-4-ol] is 5-fold higher in IC50: 1670 nM for the first, 8430 nM for the second. The first is the more potent here.

Compared with `CS(=O)(=O)N1CCc2c(c(-c3ccc(C(F)(F)F)c(SCCN4CCC(NC(=O)CO)CC4)c3)nn2C[C@@H](O)CN2CCOCC2)C1` [Example 654, 2-Hydroxy-N-[1-(2-{[5-{1-[(2S)-2-hydroxy-3-morpholin-4-ylpropyl]-5-(methylsulfonyl)-4,5,6,7-tetrahydro-1H-pyrazolo[4,3-c]pyridin-3-yl}-2-(trifluoromethyl)phenyl]sulfanyl}ethyl)piperidin-4-yl]acetamide], `CS(=O)(=O)N1CCc2c(c(-c3ccc(C(F)(F)F)c(SCCN4CCC(F)CC4)c3)nn2CC(O)CN2CC[C@@H](O)C2)C1` (stereo partly drawn) [Example 414, (3R)-1-(3-{3-[3-{[2-(4-Fluoropiperidin-1-yl)ethyl]sulfanyl}-4-(trifluoromethyl)phenyl]-5-(methylsulfonyl)-4,5,6,7-tetrahydro-1H-pyrazolo[4,3-c]pyridin-1-yl}-2-hydroxypropyl)pyrrolidin-3-ol] is 6.5-fold lower in IC50: 3140 nM for the first, 480 nM for the second.

First: CCCNCCSc1cc(-c2nn(CCCN3CCC(N4CCCC4)CC3)c3c2CN(S(C)(=O)=O)CC3)ccc1C(F)(F)F [Example 440, N-(2-{[5-{5-(Methylsulfonyl)-1-[3-(4-pyrrolidin-1-ylpiperidin-1-yl)propyl]-4,5,6,7-tetrahydro-1H-pyrazolo[4,3-c]pyridin-3-yl}-2-(trifluoromethyl)phenyl]sulfanyl}ethyl)propan-1-amine]
Second: CS(=O)(=O)N1CCc2c(c(-c3ccc(C(F)(F)F)c(SCCN4CCCCC4)c3)nn2CCCN2CCCCC2)C1 [Example 54, 5-Methanesulfonyl-3-[3-(2-piperidin-1-yl-ethylsulfanyl)-4-trifluoromethyl-phenyl]-1-(3-piperidin-1-yl-propyl)-4,5,6,7-tetrahydro-1H-pyrazolo[4,3-c]pyridine]
The IC50 of the first is 1.9-fold higher: 740 nM for the first, 380 nM for the second.

Compared with `COCC(=O)N1CCc2c(c(-c3ccc(C(F)(F)F)c(SCCN4CCC(F)CC4)c3)nn2C[C@@H](O)CN2CCCCC2)C1` [Example 373, (2S)-1-{3-[3-{[2-(4-Fluoropiperidin-1-yl)ethyl]sulfanyl}-4-(trifluoromethyl)phenyl]-5-[(methyloxy)acetyl]-4,5,6,7-tetrahydro-1H-pyrazolo[4,3-c]pyridin-1-yl}-3-piperidin-1-ylpropan-2-ol], `CNC(=O)C(=O)N1CCc2c(c(-c3ccc(C(F)(F)F)c(SCCN4CCC(F)CC4)c3)nn2C[C@@H](O)CN2CCCCC2)C1` [Example 432, 2-{3-[3-{[2-(4-Fluoropiperidin-1-yl)ethyl]sulfanyl}-4-(trifluoromethyl)phenyl]-1-[(2S)-2-hydroxy-3-piperidin-1-ylpropyl]-1,4,6,7-tetrahydro-5H-pyrazolo[4,3-c]pyridin-5-yl}-N-methyl-2-oxoacetamide] is 1.7-fold lower in IC50: 470 nM for the first, 270 nM for the second.

Compared with `CC(C)(O)C1CCN(C[C@H](O)Cn2nc(-c3ccc(C(F)(F)F)c(SCCN4CCC(F)(F)CC4)c3)c3c2CCN(S(C)(=O)=O)C3)CC1` [Example 723, (2S)-1-{3-[3-{[2-(4,4-Difluoropiperidin-1-yl)ethyl]sulfanyl}-4-(trifluoromethyl)phenyl]-5-(methylsulfonyl)-4,5,6,7-tetrahydro-1H-pyrazolo[4,3-c]pyridin-1-yl}-3-[4-(1-hydroxy-1-methylethyl)piperidin-1-yl]propan-2-ol], `CS(=O)(=O)N1CCc2c(c(-c3ccc(C(F)(F)F)c(SCCN4CCC(F)CC4)c3)nn2C[C@@H](O)CN2CCCCC2CO)C1` (stereo partly drawn) [Example 570, (2S)-1-{3-[3-{[2-(4-Fluoropiperidin-1-yl)ethyl]sulfanyl}-4-(trifluoromethyl)phenyl]-5-(methylsulfonyl)-4,5,6,7-tetrahydro-1H-pyrazolo[4,3-c]pyridin-1-yl}-3-[2-(hydroxymethyl)piperidin-1-yl]propan-2-ol] is 14-fold higher in IC50: 45 nM for the first, 640 nM for the second.

`CC(C)(C)C1CCN(CCSc2cc(-c3nn(CCCN4CCC(N5CCCC5=O)CC4)c4c3CN(S(C)(=O)=O)CC4)ccc2C(F)(F)F)CC1` [Example 16, 1-{1-[3-(3-{3-[2-(4-tert-Butyl-piperidin-1-yl)-ethylsulfanyl]-4-trifluoromethyl-phenyl}-5-methanesulfonyl-4,5,6,7-tetrahydro-pyrazolo[4,3-c]pyridin-1-yl)-propyl]-piperidin-4-yl}-pyrrolidin-2-one] and `CS(=O)(=O)N1CCc2c(c(-c3ccc(C(F)(F)F)c(SCCN4CCC(O)CC4)c3)nn2CC(O)CN2CCC(C(=O)N3CCCC3)CC2)C1` (stereo not shown) [Example 808, 1-[2-({5-[1-{2-Hydroxy-3-[4-(pyrrolidin-1-ylcarbonyl)piperidin-1-yl]propyl}-5-(methylsulfonyl)-4,5,6,7-tetrahydro-1H-pyrazolo[4,3-c]pyridin-3-yl]-2-(trifluoromethyl)phenyl}sulfanyl)ethyl]piperidin-4-ol] are within 1.5-fold of each other in IC50: 160 nM for the first, 110 nM for the second.

Compared with `CC(=O)N1CCc2c(c(-c3ccc(C(F)(F)F)c(SCCNC(=O)OCc4ccccc4)c3)nn2CC(O)CN2CCC(c3ccccn3)CC2)C1` (stereo not shown) [Example 774, Phenylmethyl (2-{[5-{5-acetyl-1-[2-hydroxy-3-(4-pyridin-2-ylpiperidin-1-yl)propyl]-4,5,6,7-tetrahydro-1H-pyrazolo[4,3-c]pyridin-3-yl}-2-(trifluoromethyl)phenyl]sulfanyl}ethyl)carbamate], `O=C(CO)N1CCc2c(c(-c3ccc(C(F)(F)F)c(SCCN4CCCCC4)c3)nn2CC(O)CN2CCCCC2)C1` (stereo not shown) [Example 239, 1-[5-(Hydroxyacetyl)-3-{3-[(2-piperidin-1-ylethyl)sulfanyl]-4-(trifluoromethyl)phenyl}-4,5,6,7-tetrahydro-1H-pyrazolo[4,3-c]pyridin-1-yl]-3-piperidin-1-ylpropan-2-ol] is 3.5-fold higher in IC50: 80 nM for the first, 280 nM for the second.
